Paper PMC6290913 (2018)

Tests used:
prostate xenograft = conditions: 200 mg/kg in drinking water ad libitum; cited from earlier work
85 serine hydrolases = conditions: 33.3 μM to 10 nM; semiquantitative
Sprague-Dawley rats = assay: Rat diuresis and kaliuresis model; type: in vivo; conditions: 1.5 mg/kg iv after 25 mg/kg acetazolamide; urine over 6 h

Compound	effect in prostate xenograft mouse model (prostate xenograft)	serine hydrolases inhibited in EnPlex screen (85 serine hydrolases)	Na+/K+ excretion ratio (Sprague-Dawley rats)
N=C(N)NC(=O)c1nc(Cl)c(N)nc1N [Compound 4, amiloride, reference compound]	complete remission	slight activity against only a few serine hydrolases (C1r, C1s, DDHD1, factor VIIa, and LACTB)	–
N=C(N)NC(=O)c1nc(-c2cc3ccccc3o2)c(N2CCCCCC2)nc1N [Compound 18, 3-Amino-5-(azepan-1-yl)-6-(benzofuran-2-yl)-N-carbamimidoylpyrazine-2-carboxamide]	–	–	2.44−2.68
